Tested on: CTL response
Set-up: species or system HLA-A2.1/K^b-H-2^bxs transgenic mice
Details: mouse; for Immunogenicity In Vivo (IFA): No. CTL-Positive Cultures: sc

Molecule	Immunogenicity In Vivo (IFA): CTL Response (Geo. Mean ΔLU)	Immunogenicity In Vivo (IFA): No. CTL-Positive Cultures
CC(C)C[C@H](NC(=O)[C@@H](NC(=O)[C@@H](NC(=O)[C@H](CS)NC(=O)[C@H](CC(C)C)NC(=O)[C@@H]1CCCN1C(=O)[C@@H](NC(=O)[C@H](CC(C)C)NC(=O)[C@@H](N)CCCCN)[C@@H](C)O)C(C)C)[C@@H](C)O)C(=O)O [HIV Env 120]	6.4 (1.3) ΔLU	2/5
FLPSDFFPSV [HBV Core 18]	73.0 (1.1) ΔLU	6/6

From patent US6534482B1, “Expression vectors for stimulating an immune response and methods of using the same” (priority 1998, dated 2003)
